{
  "source": "patent US4057636A",
  "about": "“Antihypertensive pyridylguanidine compounds” (Leo Pharmaceutical Products Ltd. A/S, priority 1974, dated 1977)",
  "experiment": "in vivo",
  "details": "mouse, po",
  "data": [
    {"smiles": "CC(C)(C)/N=C(/NC#N)Nc1cccnc1", "note": "[P 1060, N-tert-Butyl-N\"-cyano-N'-3-pyridylcuanidine]", "values": [
      {"measurement": "LD50", "result": "> 1000", "unit": "mg/kg"}
    ]}
  ]
}
